Measurements taken from PubChem BioAssay AID464 (The Scripps Research Institute Molecular Screening Center, 2006).

System: Jurkat E6.1 viability, ATP luminescence, 48 h
Assay: Jurkat E6.1 cell cytotoxicity, CC50 determination, dose response, cytotoxicity control, ATP luminescence, 48 h, 60K MLSMR (AID 464)

Compound: CCc1nc2c(n1)c1c(non1O)c1c2no[n+]1[O-]
- CC50: 3.21 µM
